Test results published in patent publication US20110064726A1.

Target: cynomolgus monkey IgE (cynomolgus monkey)
Assay: capture ELISA, antibody coated; Test 2, Cyno 8 serum

## E25 (omalizumab) (antibody)
  IgE concentration detected: 25 ng/mL
